{
  "source": "ChEMBL document CHEMBL2010698",
  "about": "(J Med Chem, 2012)",
  "system": "Mus musculus",
  "assay": "Antialzheimer activity in transgenic mouse harboring K670M/N671L, PS1M146V and tauP301L mutants assessed as reduction in hippocampal Abeta(1-40) levels at 0.12 umol/kg, ip for 21 days by ELISA",
  "set-up": "scale not given: the % may be the effect or the level left",
  "conditions": "Hippocampus",
  "data": [
    {"smiles": "CCC1=C[C@@H]2Cc3nc4cc(Cl)ccc4c(N)c3[C@H](C1)C2.Cl", "values": [
      {"measurement": "Activity", "value": 40, "unit": "%"}
    ]}
  ]
}
